These results are taken from patent publication US11547698B2, “Aryl hydrocarbon receptor modulators” (ARIAGEN, INC., priority 2016, dated 2023).

SMILES strings stand for the structures.

The target of this series is T1, AhR receptor (Homo sapiens, UniProt P35869).
T1 construct: cells of reporter gene expressing natural (Human Hepatoma Huh-7) AhR receptor; endogenous in cells; host or cells: Human hepatoma Huh-7 reporter cells (firefly luciferase under a receptor-specific response element)
T1 sequence (P35869 11-848): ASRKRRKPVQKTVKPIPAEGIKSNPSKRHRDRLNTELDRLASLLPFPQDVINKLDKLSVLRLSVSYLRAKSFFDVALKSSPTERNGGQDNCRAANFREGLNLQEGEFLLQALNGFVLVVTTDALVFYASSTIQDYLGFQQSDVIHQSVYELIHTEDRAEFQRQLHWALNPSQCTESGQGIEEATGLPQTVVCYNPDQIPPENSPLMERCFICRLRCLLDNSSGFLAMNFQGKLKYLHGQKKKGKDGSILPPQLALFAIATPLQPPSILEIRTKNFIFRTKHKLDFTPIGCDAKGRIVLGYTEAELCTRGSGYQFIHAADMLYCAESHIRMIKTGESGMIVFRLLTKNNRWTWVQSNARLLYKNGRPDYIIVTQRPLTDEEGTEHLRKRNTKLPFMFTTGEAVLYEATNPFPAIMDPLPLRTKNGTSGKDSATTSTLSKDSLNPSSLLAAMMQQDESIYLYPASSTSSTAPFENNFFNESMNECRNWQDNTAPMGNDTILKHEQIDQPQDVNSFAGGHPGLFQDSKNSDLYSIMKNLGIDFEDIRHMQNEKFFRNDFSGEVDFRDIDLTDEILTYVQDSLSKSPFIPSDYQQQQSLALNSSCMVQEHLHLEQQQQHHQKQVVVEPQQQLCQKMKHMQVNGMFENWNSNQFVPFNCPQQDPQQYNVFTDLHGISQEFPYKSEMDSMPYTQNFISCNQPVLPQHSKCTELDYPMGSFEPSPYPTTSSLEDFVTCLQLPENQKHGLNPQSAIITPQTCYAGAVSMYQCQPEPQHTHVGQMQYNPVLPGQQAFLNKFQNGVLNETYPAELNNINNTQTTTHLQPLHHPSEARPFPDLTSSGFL
Kind of series: AhR agonist assay (luciferase reporter gene cells). The class given is cell-based. To be noted: reporter cells expressing natural (Human Hepatoma Huh-7) AhR receptor, firefly luciferase, 24 hours at 37° C., 0.1% DMSO. Here is the method:
Experimental material (plasmids): cells of reporter gene expressing natural (Human Hepatoma Huh-7) AhR receptor, in which reporter vector comprises a functional firefly luciferase gene connecting to an upstream receptor specific genetic response element (GRE).
AhR agonist test includes following three steps:
1, Implanting into cells: a suspension of reporter cell of AhR receptor was prepared in cell recovery medium (CRM; containing 10% charcoal-treated FBS). Then the suspension (100 μL) was assigned to wells in a white culture plate with 96 wells.
2, Before the experiment was about to begin, Master Stocks was diluted to be a processing medium of “concentration of 2 X” by use of appropriate compound screening assay medium (CSM: containing 10% charcoal-treated FBS). […]
3, Fluorescence detection and analysis: after incubation, the processing medium was discarded and luciferase detection reagent was added 100 μL/well. Ave RLU (mean relative fluorescence intensity) of each well and coefficient of variation for each set of experiments were detected. Ratio of Ave RLU^Test Cmpd of treatment groups with test compound of different concentrations to Ave RLU^Vehicle of blank control group can determine activity quantitatively of AhR receptor under influence of test compound of different concentrations and activating multiples as well as EC50. […]

In general, EC50 refers to the midpoint of the concentration-response curve. With `COC(=O)c1cnc(C(=O)c2c[nH]c3ccccc23)s1` [Compound 11], the concentration giving a half-maximal response (EC50) was in the range of 10 to 100 µM.
